{"source": "ChEMBL document CHEMBL3632608", "about": "“Effects of alkyl side chains and terminal hydrophilicity on vitamin D receptor (VDR) agonistic activity based on the diphenylpentane skeleton” (Bioorg Med Chem Lett, 2015)", "assay_type_in_all_cases": "cell-based", "key": {"[1]": {"target": "T1, Vitamin D3 receptor (Homo sapiens) (UniProt P11473)", "T1 sequence (whole entry)": "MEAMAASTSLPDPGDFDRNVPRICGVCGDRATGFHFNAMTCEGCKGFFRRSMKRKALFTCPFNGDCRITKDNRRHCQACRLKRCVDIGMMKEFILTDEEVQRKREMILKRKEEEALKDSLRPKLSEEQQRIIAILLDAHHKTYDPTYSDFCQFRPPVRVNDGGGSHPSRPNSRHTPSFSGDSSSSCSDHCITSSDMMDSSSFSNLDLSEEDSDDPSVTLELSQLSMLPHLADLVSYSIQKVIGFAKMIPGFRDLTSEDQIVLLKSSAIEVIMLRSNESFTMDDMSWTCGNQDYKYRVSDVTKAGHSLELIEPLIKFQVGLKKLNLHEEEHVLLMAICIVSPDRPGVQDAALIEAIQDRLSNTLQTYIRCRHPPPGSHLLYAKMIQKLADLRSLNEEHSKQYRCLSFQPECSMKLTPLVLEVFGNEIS", "assay": "Agonist activity at human VDR expressed in HEK293 cells co-expressing CMX-GAL4N and TK-MH100x4-LUC assessed as induction of transcriptional activity at 3 uM by beta-galactosidase reporter gene assay relative to 1alpha,25(OH)2VD3"}, "[2]": {"target": "T1, Vitamin D3 receptor (Homo sapiens)", "assay": "Agonist activity at human VDR expressed in HEK293 cells co-expressing CMX-GAL4N and TK-MH100x4-LUC assessed as induction of transcriptional activity at 10 uM by beta-galactosidase reporter gene assay relative to 1alpha,25(OH)2VD3"}, "[3]": {"target": "T1, Vitamin D3 receptor (Homo sapiens)", "assay": "Antagonist activity at human VDR expressed in HEK293 cells co-expressing CMX-GAL4N and TK-MH100x4-LUC assessed as inhibition of 1alpha,25(OH)2VD3-induced transcriptional activity up to 10 uM by beta-galactosidase reporter gene assay"}, "[4]": {"target": "T1, Vitamin D3 receptor (Homo sapiens)", "assay": "Agonist activity at VDR in human HL60 cells assessed as induction of cell differentiation at 10 uM by NBT reduction assay", "conditions": "HL-60"}}, "note": "Activity calls are given as the source filed them. No cut-off for these calls is given here.", "data": [{"smiles": "CCCCCCCCCCOC(C)(C)[C@H](O)COc1ccc(C(CC)(CC)c2ccc(OC[C@@H](O)CO)c(C)c2)cc1C", "values": [{"measurement": "Activity", "setting": "[1]", "result": "inactive"}, {"measurement": "Activity", "setting": "[2]", "result": "inactive"}, {"measurement": "inhibition", "setting": "[3]", "result": "inactive"}]}, {"smiles": "CCCCCCCCCCOC(C)(C)[C@@H](O)COc1ccc(C(CC)(CC)c2ccc(OC[C@@H](O)CO)c(C)c2)cc1C", "values": [{"measurement": "Activity", "setting": "[1]", "result": "inactive"}, {"measurement": "Activity", "setting": "[2]", "result": "inactive"}, {"measurement": "Activity", "setting": "[4]", "result": 6.9, "unit": "%"}, {"measurement": "inhibition", "setting": "[3]", "result": "inactive"}]}, {"smiles": "CCCCCCCCOC(C)(C)[C@H](O)COc1ccc(C(CC)(CC)c2ccc(OC[C@@H](O)CO)c(C)c2)cc1C", "values": [{"measurement": "Activity", "setting": "[1]", "result": "inactive"}, {"measurement": "Activity", "setting": "[2]", "result": "inactive"}, {"measurement": "inhibition", "setting": "[3]", "result": "inactive"}]}, {"smiles": "CCCCCCCCOC(C)(C)[C@@H](O)COc1ccc(C(CC)(CC)c2ccc(OC[C@@H](O)CO)c(C)c2)cc1C", "values": [{"measurement": "Activity", "setting": "[1]", "result": 13, "unit": "%"}, {"measurement": "Activity", "setting": "[4]", "result": 22.2, "unit": "%"}, {"measurement": "inhibition", "setting": "[3]", "result": "inactive"}]}]}
